The values below are quoted from earlier work in patent US5587392A, “Azolyl methyl phenyl derivatives having aromatase inhibitory activity” (Mochida Pharmaceutical Co., Ltd., priority 1994, dated 1996).

Each structure is given as a SMILES string.

For the data set, the system named is aromatase. Particulars: related art; cited from earlier work.

As to `CCC1(c2ccc(N)cc2)CCC(=O)NC1=O` (stereo not shown) [AG, Aminoglutethimide], the aromatase inhibitory action result was “weak aromatase inhibitory action”.
